From US20050137135A1 (priority 2002, published 2005) come the findings set out here.

For the test, the system named is INS-1 (832/13) cells. Briefly: Cell survival during glucose deprivation (CYQUANT). It is filed as cell-based. Conditions: 0 mM glucose, n=4, FIG. 16B. The protocol: Cell passages 45-60 were used.
Cells were seeded into 96-well plates (5×10^4 cells/well) prior to experimentation. […] Cells were quantified using the CYQUANT™ assay system (Molecular Probes, Eugene, Oreg., USA) according to the manufacturers' protocol.
Cell survival was assessed in the presence of prolonged glucose deprivation.

Regarding `CC[C@H](C)[C@H](NC(=O)[C@H](CO)NC(=O)[C@H](Cc1ccc(O)cc1)NC(=O)[C@H](CC(=O)O)NC(=O)[C@H](CO)NC(=O)[C@@H](NC(=O)[C@H](Cc1ccccc1)NC(=O)[C@@H](NC(=O)CNC(=O)[C@H](CCC(=O)O)NC(=O)[C@H](C)NC(=O)[C@@H](N)Cc1ccc(O)cc1)[C@@H](C)O)[C@@H](C)CC)C(=O)N[C@@H](C)C(=O)N[C@@H](CCSC)C(=O)N[C@@H](CC(=O)O)C(=O)N[C@@H](CCCCN)C(=O)N[C@H](C(=O)N[C@@H](Cc1c[nH]cn1)C(=O)N[C@@H](CCC(N)=O)C(=O)N[C@@H](CCC(N)=O)C(=O)N[C@@H](CC(=O)O)C(=O)N[C@@H](Cc1ccccc1)C(=O)N[C@H](C(=O)N[C@@H](CC(N)=O)C(=O)N[C@@H](Cc1c[nH]c2ccccc12)C(=O)N[C@@H](CC(C)C)C(=O)N[C@@H](CC(C)C)C(=O)N[C@@H](C)C(=O)N[C@@H](CCC(N)=O)C(=O)N[C@@H](CCCCN)C(=O)NCC(=O)N[C@@H](CCCCN)C(=O)N[C@@H](CCCCN)C(=O)N[C@@H](CC(N)=O)C(=O)N[C@@H](CC(=O)O)C(=O)N[C@@H](Cc1c[nH]c2ccccc12)C(=O)N[C@@H](CCCCN)C(=O)N[C@@H](Cc1c[nH]cn1)C(=O)N[C@@H](CC(N)=O)C(=O)N[C@H](C(=O)N[C@H](C(=O)N[C@@H](CCC(N)=O)C(=O)O)[C@@H](C)O)[C@@H](C)CC)C(C)C)[C@@H](C)CC` [GIP, glucose-dependent insulinotropic polypeptide], the EC50 (as a rule, the concentration giving half of the maximal effect) was 1.24 ± 0.48 nM.
